{
  "source": "paper PMC7337386",
  "about": "(bioRxiv, 2020)",
  "system": "SARS-CoV-2 (USA_WA1/2020)",
  "assay": "SARS-CoV-2 viral cytopathic effect assay",
  "note": "Values joined by “and” are separate entries in the source; they are usually repeats but may differ in a detail not shown here. Equal entries are not always repeated.",
  "data": [
    {"smiles": "CC(=O)Oc1ccccc1C(=O)Nc1ncc([N+](=O)[O-])s1", "note": "[Nitazoxanide]", "values": [
      {"measurement": "nitazoxanide concentration at which synergy with remdesivir was observed", "value": "> 1.25 μM and > 0.383 mg/L"}
    ]}
  ]
}
